Measured values as given in article PMC2614347, “A Novel Peptide Enhances Therapeutic Efficacy of Liposomal Anti-Cancer Drugs in Mice Models of Human Lung Cancer” (PLoS ONE, 2009).

Experiment: Pharmacokinetic and biodistribution study of doxorubicin formulations
Assay type: in vivo, SCID mice
Conditions: 2 mg/kg i.v.; total tumor doxorubicin; spectrofluorometry; n = 3 per time point
Method: SCID mice bearing NSCLC xenografts (∼500 mm^3), were injected in the tail vein with various formulations of liposomal doxorubicin (SP5-2-LD, MP5-2-LD, and LD) and free doxorubicin at a dose of 2 mg/kg. At selected time points, three mice in each group were anaesthetized and sacrificed. Blood samples were collected through submaxillary punctures, and plasma samples were prepared. After perfusion, xenograft tumors and mouse organs were removed and homogenized. […] Total doxorubicin concentration was measured using a method described by Mayer et al.. […] Tissue concentrations of doxorubicin were expressed as microequivalents per milliliter of plasma or per gram of tissue. A standard doxorubicin curve was prepared in control homogenates following the same extraction procedure as above. Drug levels were estimated on the basis of doxorubicin fluorescent equivalents.

COc1cccc2c1C(=O)c1c(O)c3c(c(O)c1C2=O)C[C@@](O)(C(=O)CO)C[C@@H]3O[C@H]1C[C@H](N)[C@H](O)[C@H](C)O1 [FD, doxorubicin]
AUC0-48 h, Total: 10.44 μg h/g tumor
